The values below are quoted from earlier work in PMC3767463 (Journal of the American Chemical Society, 2013).

The conditions of the data set: cited from earlier work.

In the case of kalata B1, the “Concentration at which cytotoxic” value is recorded as “above 10 μM”.
